This is an account of results in publication PMC3968014, “Design and Synthesis of a Library of Lead-Like 2,4-Bisheterocyclic Substituted Thiophenes as Selective Dyrk/Clk Inhibitors” (PLoS ONE, 2014).

The chains behind the UniProt entries cited, without tags or fusion partners.
UniProt Q9Y463, whole entry: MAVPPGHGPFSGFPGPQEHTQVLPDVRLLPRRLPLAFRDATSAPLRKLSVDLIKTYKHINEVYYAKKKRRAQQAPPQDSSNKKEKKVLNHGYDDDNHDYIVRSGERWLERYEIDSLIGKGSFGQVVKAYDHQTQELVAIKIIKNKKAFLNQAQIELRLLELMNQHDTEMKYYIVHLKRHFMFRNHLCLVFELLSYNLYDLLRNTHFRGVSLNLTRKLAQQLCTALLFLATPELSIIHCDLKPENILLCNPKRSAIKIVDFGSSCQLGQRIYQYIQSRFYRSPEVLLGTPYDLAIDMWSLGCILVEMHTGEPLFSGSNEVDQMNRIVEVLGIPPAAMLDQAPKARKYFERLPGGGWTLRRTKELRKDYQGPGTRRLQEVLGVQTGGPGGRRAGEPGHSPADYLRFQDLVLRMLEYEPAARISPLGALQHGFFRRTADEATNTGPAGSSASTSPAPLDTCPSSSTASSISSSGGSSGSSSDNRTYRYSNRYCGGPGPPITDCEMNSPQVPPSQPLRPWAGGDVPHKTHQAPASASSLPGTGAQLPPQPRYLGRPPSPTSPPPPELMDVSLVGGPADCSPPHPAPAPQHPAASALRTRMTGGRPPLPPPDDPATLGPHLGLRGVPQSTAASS

The test has as its target T1, Dyrk1B (Homo sapiens, UniProt Q9Y463).
T1 construct: purchased Life Technologies PV4649 (LOT # 877059G)
Description: Dyrk1B kinase assay (32P-ATP, Woodtide). Type of test: biochemical.

Molecules are shown by their SMILES.

With `c1cncc(-c2csc(-c3cncs3)c2)c1` [Compound 48, 3-[5-(1,3-thiazol-5-yl)thiophen-3-yl]pyridine], the “LE (Dyrk1B)” value was 0.65 kcal/(mol*HA).
